Literature values in publication PMC3606385 (PLoS ONE, 2013).

Sequences of proteins named here, by UniProt entry; tags and fusion partners are left off. A change or cut given only in a name is not applied to a line headed by its entry.
UniProt P28845: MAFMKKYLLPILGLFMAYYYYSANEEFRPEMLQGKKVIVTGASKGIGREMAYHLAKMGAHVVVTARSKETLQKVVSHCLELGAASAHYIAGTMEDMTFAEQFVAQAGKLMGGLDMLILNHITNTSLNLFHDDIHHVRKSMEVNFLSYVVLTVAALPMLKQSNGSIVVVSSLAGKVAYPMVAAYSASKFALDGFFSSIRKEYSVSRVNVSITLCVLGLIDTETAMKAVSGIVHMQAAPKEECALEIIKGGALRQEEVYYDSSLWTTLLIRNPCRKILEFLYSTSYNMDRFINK

Tests used:
Human 11β-HSD1 = biological target: T1, Human 11β-HSD1 (Homo sapiens, UniProt P28845); conditions: human enzyme; cited from earlier work
T1 construct: expressed in transfected cells; host or cells: CHOP cells (transient, FuGENE)

Human 11β-HSD2 = biological target: T2, Human 11β-HSD2 (Homo sapiens, UniProt P80365); conditions: cited from earlier work
T2 construct: The rat and human kidney microsomes were used for 11β-HSD2 sources; tissue Gentest (Woburn, MA); host or cells: human kidney microsomes
T2 sequence (P80365 1-405): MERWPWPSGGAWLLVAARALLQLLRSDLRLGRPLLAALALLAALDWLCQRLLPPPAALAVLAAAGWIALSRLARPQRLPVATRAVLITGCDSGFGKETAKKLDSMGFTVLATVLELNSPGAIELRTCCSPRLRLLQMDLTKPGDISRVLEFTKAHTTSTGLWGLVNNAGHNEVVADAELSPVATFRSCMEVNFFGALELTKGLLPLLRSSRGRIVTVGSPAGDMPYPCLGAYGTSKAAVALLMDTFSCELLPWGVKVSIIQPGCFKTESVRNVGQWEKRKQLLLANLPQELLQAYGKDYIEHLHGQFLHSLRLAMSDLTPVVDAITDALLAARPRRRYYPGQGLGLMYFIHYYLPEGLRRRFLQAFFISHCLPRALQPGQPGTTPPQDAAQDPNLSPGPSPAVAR

In the case of BVT2733, the IC50 (Human 11β-HSD1) is given as 3.3 µM and the “Selectivity over human 11β-HSD2” value (Human 11β-HSD2) is given as “more than 200 fold”.
